According to ChEMBL document CHEMBL5335817, “Discovery and optimization of (2-naphthylthio)acetic acid derivative as selective Bfl-1 inhibitor” (Bioorg Med Chem Lett, 2024):

Target: T1, Bcl-2-related protein A1 (Homo sapiens) (UniProt Q16548)
T1 sequence (whole entry): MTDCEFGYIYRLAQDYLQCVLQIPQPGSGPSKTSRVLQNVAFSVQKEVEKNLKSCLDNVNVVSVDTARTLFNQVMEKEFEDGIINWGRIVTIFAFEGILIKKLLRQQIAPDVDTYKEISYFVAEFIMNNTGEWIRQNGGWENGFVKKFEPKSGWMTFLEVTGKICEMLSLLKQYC
Experiment: Binding affinity to intact Bfl-1 (unknown origin) assessed as adduct formation incubated for 1 hrs by high resolution mass spectrum analysis

## O=C(O)CSc1cc(NS(=O)(=O)c2ccc(Br)cc2)c2ccccc2c1O
  Activity: inactive

The source made the active and inactive calls. The rule behind the calls is not given here.
